target: small intestinal muscle (muscarinic receptor) (Cavia porcellus, UniProt H0W1Z3); test: Functional in vitro study on small intestinal muscle (KB); settings: Table 5; guinea pig small intestinal muscle

Amino acid sequences for entries named in this document (tags omitted). Residues count along the entry.
UniProt H0W1Z3, 1-590: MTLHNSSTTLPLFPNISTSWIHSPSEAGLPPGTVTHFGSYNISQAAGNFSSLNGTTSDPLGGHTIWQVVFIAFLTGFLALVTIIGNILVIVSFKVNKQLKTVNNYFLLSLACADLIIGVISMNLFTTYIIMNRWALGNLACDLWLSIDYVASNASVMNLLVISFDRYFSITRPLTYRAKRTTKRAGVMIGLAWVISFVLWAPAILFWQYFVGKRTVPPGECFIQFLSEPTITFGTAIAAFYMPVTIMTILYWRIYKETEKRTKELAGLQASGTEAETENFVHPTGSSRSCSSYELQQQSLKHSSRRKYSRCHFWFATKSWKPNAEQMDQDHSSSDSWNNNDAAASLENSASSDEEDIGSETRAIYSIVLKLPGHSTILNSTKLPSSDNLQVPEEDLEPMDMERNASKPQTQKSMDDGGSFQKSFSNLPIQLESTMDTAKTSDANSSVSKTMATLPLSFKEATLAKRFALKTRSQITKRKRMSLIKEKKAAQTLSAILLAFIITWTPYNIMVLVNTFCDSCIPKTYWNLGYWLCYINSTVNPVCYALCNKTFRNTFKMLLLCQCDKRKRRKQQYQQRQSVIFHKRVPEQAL

SMILES | Kb [nM]
NC(=O)C(c1ccccc1)(c1ccccc1)[C@@H]1CCN(CCc2ccc3c(c2)CCO3)C1 | 10
CC(C)N(CCOC(=O)C1(c2ccccc2)CCCC1)C(C)C | 3.9
CC(C)N(CCOC(=O)C1(c2ccccc2)CCCCC1)C(C)C | 0.41

system: muscarinic receptor; test: Validation of filtration against centrifugation receptor binding assay; settings: within the experimental error

SMILES | Ki-values, filtration assay compared with centrifugation assay
CN1[C@@H]2CC[C@H]1C[C@@H](OC(=O)C(CO)c1ccccc1)C2 (some centres unmarked) | almost identical
C[N+]1(C)CCC(OC(=O)C(c2ccccc2)c2ccccc2)CC1 | almost identical
CCN(CC)CC1CCCCN1CC(=O)N1c2ccccc2C(=O)Nc2cccnc21 (centres unmarked) | almost identical

target: urinary bladder smooth muscle (muscarinic receptor) (Cavia porcellus, UniProt H0W1Z3); test: Functional in vitro study: antagonism of carbachol-induced contraction of urinary bladder smooth muscle strips (KB); settings: Table 1; guinea pig urinary bladder, carbachol agonist, 60 min incubation

SMILES | Kb [nM]
COC[C@@H]1C[C@@]1(C(=O)OCCN(C(C)C)C(C)C)c1ccccc1 (relative stereo) | 26
COC[C@@H]1C[C@]1(C(=O)OCCN(C(C)C)C(C)C)c1ccccc1 (relative stereo) | 18
CC(C)N(CCOC(=O)[C@]1(c2ccccc2)C[C@H]1COCc1ccccc1)C(C)C (relative stereo) | 260
CC(C)N(CCOC(=O)[C@]1(c2ccccc2)C[C@H]1CO)C(C)C (relative stereo) | 390

same assay, conditions: Table 2; guinea pig urinary bladder, carbachol agonist, 60 min incubation

SMILES | Kb [nM]
CC(C)N(CCOC(=O)[C@@]1(c2ccccc2)CC[C@H]1C)C(C)C (relative stereo) | 29
C=C1CC(C(=O)OCCN(C(C)C)C(C)C)(c2ccccc2)C1 | 3.4
CC(C)N(CCOC(=O)C1(c2ccccc2)CC2(CCC2)C1)C(C)C | 3.8
CC(C)N(CCOC(=O)C1(c2ccc([N+](=O)[O-])cc2)CCC1)C(C)C | 340
CCN(CC)CCOC(=O)C1(c2ccccc2)CCC1 | 14
CC(C)N(CCOC(=O)[C@]1(c2ccccc2)CC[C@H]1C)C(C)C (relative stereo) | 27
CCN(CC)CCOC(=O)C1(c2ccccc2)CC(C)(C)C1 | 3.4
O=C(OCCN1CCCC1)C1(c2ccccc2)CCC1 | 130
CC(C)N(CCOC(=O)C1(c2ccc([N+](=O)[O-])cc2[N+](=O)[O-])CCC1)C(C)C | 130
CN1CCCCC1COC(=O)C1(c2ccccc2)CCC1 (centres unmarked) | 14
CN1CCCC(COC(=O)C2(c3ccccc3)CC(C)(C)C2)C1 (centres unmarked) | 1.9
CN1CCC(OC(=O)C2(c3ccccc3)CCC2)CC1 | 1.7
CC(C)N(CCOC(=O)C1(c2ccsc2)CCC1)C(C)C | 28
CN1[C@@H]2CC[C@H]1C[C@@H](OC(=O)C1(c3ccccc3)CCC1)C2 (relative stereo) | 2.6
CC(C)N(CCOC(=O)C1(c2ccccc2)CC(=O)C1)C(C)C | 124
CC(C)N(CCOC(=O)C1(c2ccc3c(c2)OCO3)CCC1)C(C)C | 40
CCC1(CC)CC(C(=O)OCCN(C(C)C)C(C)C)(c2ccccc2)C1 | 19
CCN(CC)CCCOC(=O)C1(c2ccccc2)CCC1 | 37
CN1CCCC(COC(=O)C2(c3ccccc3)CCC2)C1 (centres unmarked) | 11
CC(C)N(CCOC(=O)C1(c2cccc3ccccc23)CCC1)C(C)C | 22
CC(C)N(CCOC(=O)C1(c2ccccc2)CCC1)C(C)C | 22
CC(C)N(CCOC(=O)C1(c2cccc(N)c2)CCC1)C(C)C | 35
CCN(CC)CCOC(=O)C1(c2ccccc2)CC(CC)(CC)C1 | 1.8
CC(C)N(CCOC(=O)C1(c2cccc([N+](=O)[O-])c2)CCC1)C(C)C | 610
CC(C)N(CCOC(=O)C1(c2ccc3ccccc3c2)CCC1)C(C)C | > 500
CC(C)N(CCOC(=O)C1(c2ccccc2)CC(C)(C)C1)C(C)C | 1.6
O=C(OCC1CN2CCC1CC2)C1(c2ccccc2)CCC1 (centres unmarked) | 15

same assay, conditions: Table 3; guinea pig urinary bladder, carbachol agonist, 60 min incubation

SMILES | Kb [nM]
CCN(CC)CCOC(=O)C1(c2ccsc2)CCCC1 | 15
CN1[C@@H]2CC[C@H]1CC(OC(=O)C1(c3cccs3)CCCC1)C2 (some centres unmarked) | 12
CN1CCCC(COC(=O)C2(c3cccs3)CCCC2)C1 (centres unmarked) | 20
CC(C)N(CCOC(=O)C1(c2ccsc2)CCCC1)C(C)C | 24
CC(C)N(CCOC(=O)C1(c2ccccc2)CCCC1)C(C)C | 5.7
CN1CCC(OC(=O)C2(c3cccs3)CCCC2)CC1 | 20
CC(C)N(CCOC(=O)C1(c2cccs2)CCCC1)C(C)C | 15
CCN(CC)CCOC(=O)C1(c2cccs2)CCCC1 | 15

same assay, conditions: Table 4; guinea pig urinary bladder, carbachol agonist, 60 min incubation

SMILES | Kb [nM]
COC1CCC(C(=O)OCCN(C(C)C)C(C)C)(c2ccccc2)CC1 (centres unmarked) | 29
CC(C)N(CCOC(=O)C1(c2ccccc2)CCC2(CC1)OCCO2)C(C)C | 5
CC(C)N(CCOC(=O)C1(c2ccccc2)CCC(=O)CC1)C(C)C | 234
CC(C)N(CCOC(=O)C1(c2ccccc2)CCCCC1)C(C)C | 21
CC(C)N(CCOC(=O)C1(c2ccccc2)CCC(C)(C)CC1)C(C)C | 50

— US6124354A, “Arylcycloalkane carboxylic esters, their use, pharmaceutical compositions and preparation” (dated 2000)
